Data as given in ChEMBL document CHEMBL5338787, “Discovery of Novel Bruton's Tyrosine Kinase PROTACs with Enhanced Selectivity and Cellular Efficacy” (J Med Chem, 2023).

By UniProt entry, the sequences of proteins in these tests, tags left out. Where a name states a change or a piece, a line headed by the entry shows the natural chain unless it says otherwise.
UniProt Q06187: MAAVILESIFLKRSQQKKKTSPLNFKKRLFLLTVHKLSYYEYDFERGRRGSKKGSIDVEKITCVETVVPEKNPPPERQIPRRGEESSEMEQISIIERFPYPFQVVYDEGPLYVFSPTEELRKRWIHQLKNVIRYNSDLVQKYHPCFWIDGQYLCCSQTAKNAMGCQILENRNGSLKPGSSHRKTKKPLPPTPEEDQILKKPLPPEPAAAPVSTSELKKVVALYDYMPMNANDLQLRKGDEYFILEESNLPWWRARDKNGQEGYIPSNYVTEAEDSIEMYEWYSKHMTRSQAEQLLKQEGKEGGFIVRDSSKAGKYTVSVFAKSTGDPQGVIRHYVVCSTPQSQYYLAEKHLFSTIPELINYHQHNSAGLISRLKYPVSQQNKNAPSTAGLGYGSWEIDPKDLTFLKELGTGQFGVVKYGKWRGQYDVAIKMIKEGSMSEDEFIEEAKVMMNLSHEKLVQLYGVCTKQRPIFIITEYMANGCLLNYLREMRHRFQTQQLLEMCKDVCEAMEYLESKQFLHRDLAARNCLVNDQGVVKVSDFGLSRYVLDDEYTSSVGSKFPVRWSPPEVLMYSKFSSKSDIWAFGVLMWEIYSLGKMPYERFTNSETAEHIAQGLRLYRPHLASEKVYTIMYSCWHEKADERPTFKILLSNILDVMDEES

Legend:
[1] = molecular target: Tyrosine-protein kinase BTK (Homo sapiens, UniProt Q06187); assay: Potency index, ratio of test compound Kd to GDC-0853 Kd for full length BTK (unknown origin)
Method in brief: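 TR-FRET binding used 0.05 nM purified full-length unactivated BTK, 10 nM Alexa Fluor647 kinase tracer and 2 nM Tb antibody. […] The index is the ratio to the reference inhibitor's Kd.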

[2] = Cytotoxicity against human MINO cells incubated for 48 hrs by celltitre glo 2.0 assay; type: functional, cell-based
Method in brief: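 Mino cells seeded at 10,000/well, treated across 3,000–0.15 nM (3-fold series) against 1% DMSO vehicle. CellTiter-Glo 2.0 luminescence viability read-out. IC50 from four-parameter curve fitting, mean ± SD, triplicates of three independent experiments.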

Row | Ratio [1] | SMILES | IC50 [2] [nM]
1 | 10 | C[C@H]1CN(C(=O)CNc2cccc3c2C(=O)N(C2CCC(=O)NC2=O)C3=O)CCN1c1ccc(Nc2cc(-c3ccnc(N4CCn5c(cc6c5CC(C)(C)C6)C4=O)c3CO)cn(C)c2=O)nc1 (some centres not stated) | 
2 |  | Nc1cccc2c1C(=O)N(C1CCC(=O)NC1=O)C2=O (configuration not stated) [POMALIDOMIDE] | 20.8
